The test has as its target T1, Interstitial collagenase (Homo sapiens, UniProt P03956).
T1 sequence (P03956 whole entry): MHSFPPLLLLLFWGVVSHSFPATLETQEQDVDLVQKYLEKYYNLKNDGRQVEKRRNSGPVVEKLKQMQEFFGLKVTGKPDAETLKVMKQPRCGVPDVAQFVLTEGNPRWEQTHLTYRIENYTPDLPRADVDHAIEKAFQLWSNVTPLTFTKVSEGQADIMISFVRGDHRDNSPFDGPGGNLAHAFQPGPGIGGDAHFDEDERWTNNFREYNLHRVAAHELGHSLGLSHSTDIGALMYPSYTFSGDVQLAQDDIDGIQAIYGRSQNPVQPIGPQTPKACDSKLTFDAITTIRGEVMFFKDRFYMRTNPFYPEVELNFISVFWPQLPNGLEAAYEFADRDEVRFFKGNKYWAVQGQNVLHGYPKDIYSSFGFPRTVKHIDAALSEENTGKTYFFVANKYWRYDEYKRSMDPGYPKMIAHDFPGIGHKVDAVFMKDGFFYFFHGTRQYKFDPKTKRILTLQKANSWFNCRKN
The experiment in a line: Activity against human collagenase (MMP-1).

pIC50: −log10 of the molar value.

Our source for the IC50 values is ChEMBL document CHEMBL1127698, “Matrix metalloproteinase inhibitors containing a (carboxyalkyl)amino zinc ligand: modification of the P1 and P2' residues” (J Med Chem, 1994).

For orientation: pIC50 means −log10 of the IC50, conventionally taken in molar units. Molecule `CC(C)C[C@H](N[C@H](CCN1C(=O)c2cc3ccccc3cc2C1=O)C(=O)O)C(=O)Nc1ccccc1` had a pIC50 of 5.93.
